These are literature values, as cited in patent US11173146B2, “Selective activators of the intermediate conductance CA2+activated K+ channel KCa3.1 and their methods of use” (The Regents of the University of California, priority 2014, dated 2021).

The test system of this series is voltage-gated sodium (NaV) channels. The note with it: literature; cited from earlier work.

For `Nc1nc2c(ccc3ccccc32)s1` [SKA-31, naphtho[1,2-d]thiazol-2-ylamine], the “concentrations that inhibit/affect NaV channels” value was not below 25 µM.
